Assay: Administration route study in hairless rats with Sumatriptan Succinate (Example 10)
Settings: Group 4: 6 mg free base API per 100 μL head of saline, SC injection
Description: In this study, four groups of hairless rats were tested under the following conditions: (1) Group 1 (3 mg free base API, Suc: 0.5 mg, AA: 1 mg); (2) Group 2 (6 mg free base API, Suc: 0.5 mg, AA: 1 mg); (3) Group 3 (9 mg free base API, Suc: 0.5 mg, AA: 1 mg); and (4) Group 4 (6 mg free base API per 100 μL head of saline).
The given bioavailability of Table 18 is relative bioavailability against SC injection.

Tmax: 4.8 min
Structure (SMILES): CNS(=O)(=O)Cc1ccc2[nH]cc(CCN(C)C)c2c1 [Sumatriptan Succinate]

Reference: US12324893B2, “Triptan microporation delivery system” (PassPort Technologies, Inc., priority 2019, dated 2025)
